Source: PMC8179049 (Chemical Science, 2020)
“And” between values parts separate entries of the source, which are not always exact repeats. Equal values may be shown once.

Molecular target: T1, human AspH (His6-AspH315-758) (Homo sapiens, UniProt Q12797)
T1 construct: N-Terminally His6-tagged human AspH315-758 (His6-AspH315-758) was produced in Escherichia coli BL21 (DE3); made in house; host or cells: Escherichia coli BL21 (DE3), pET-28a(+) vector
T1 sequence (Q12797 315-758): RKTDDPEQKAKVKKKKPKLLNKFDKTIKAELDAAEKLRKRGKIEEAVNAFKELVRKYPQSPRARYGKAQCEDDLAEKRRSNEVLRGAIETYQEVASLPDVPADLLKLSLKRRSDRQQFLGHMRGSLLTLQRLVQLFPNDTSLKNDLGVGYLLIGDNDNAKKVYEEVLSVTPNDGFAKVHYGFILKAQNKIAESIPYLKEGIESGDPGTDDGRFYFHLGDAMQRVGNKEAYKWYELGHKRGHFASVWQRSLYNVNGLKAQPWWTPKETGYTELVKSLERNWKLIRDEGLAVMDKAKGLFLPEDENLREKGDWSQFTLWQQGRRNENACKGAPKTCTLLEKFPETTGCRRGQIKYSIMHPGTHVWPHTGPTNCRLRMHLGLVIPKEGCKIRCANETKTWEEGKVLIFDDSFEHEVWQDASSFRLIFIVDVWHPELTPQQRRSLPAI
Assay: AspH steady-state kinetics by SPE-MS turnover assays
Type: biochemical
Conditions: calculated from the concentration of active AspH (90.8 ± 13.7 nM)

Row | k cat | Compound
1 | ~0.08 s⁻¹ and 0.08 ± 0.01 s⁻¹ | CC(CC(=O)O)C(=O)C(=O)O (centres unmarked) [compound 16, 3-methyl-2OG]
2 | ~0.04 s⁻¹ and 0.04 ± 0.01 s⁻¹ | O=C(O)C(=O)c1ccc(C(=O)O)cc1 [compound 41, 4-carboxyphenylglyoxylic acid]
